Measurements published in US20110117588A1, “METHOD OF PREDICTING DRUG-INDUCED PHOSPHOLIPIDOSIS” (KYUSHU UNIVERSITY, NATIONAL UNIVERSITY CORPORATION, priority 2007, published 2011).

Legend:
NRK cells [1] = experiment: β-hexosaminidase activity in the medium after exposure of NRK cells; conditions: 24 hr exposure, result in words
NRK cells [2] = experiment: Localization of MPR in NRK cells by confocal laser microscope with antibody; conditions: 24 hr exposure, result in words

gentamicin
β-hex activity increase (NRK cells [1]): none | alteration of MPR localization (NRK cells [2]): none
